From patent US9145402B2, “Aminopyrimidine derivatives as LRRK2 modulators” (Genentech, Inc., priority 2011, dated 2015)
pKi: −log10 of the molar value.

By UniProt entry, the sequences of proteins in these tests, tags left out. Residues count along the entry.
UniProt Q5S007, 970-2527 G2019S: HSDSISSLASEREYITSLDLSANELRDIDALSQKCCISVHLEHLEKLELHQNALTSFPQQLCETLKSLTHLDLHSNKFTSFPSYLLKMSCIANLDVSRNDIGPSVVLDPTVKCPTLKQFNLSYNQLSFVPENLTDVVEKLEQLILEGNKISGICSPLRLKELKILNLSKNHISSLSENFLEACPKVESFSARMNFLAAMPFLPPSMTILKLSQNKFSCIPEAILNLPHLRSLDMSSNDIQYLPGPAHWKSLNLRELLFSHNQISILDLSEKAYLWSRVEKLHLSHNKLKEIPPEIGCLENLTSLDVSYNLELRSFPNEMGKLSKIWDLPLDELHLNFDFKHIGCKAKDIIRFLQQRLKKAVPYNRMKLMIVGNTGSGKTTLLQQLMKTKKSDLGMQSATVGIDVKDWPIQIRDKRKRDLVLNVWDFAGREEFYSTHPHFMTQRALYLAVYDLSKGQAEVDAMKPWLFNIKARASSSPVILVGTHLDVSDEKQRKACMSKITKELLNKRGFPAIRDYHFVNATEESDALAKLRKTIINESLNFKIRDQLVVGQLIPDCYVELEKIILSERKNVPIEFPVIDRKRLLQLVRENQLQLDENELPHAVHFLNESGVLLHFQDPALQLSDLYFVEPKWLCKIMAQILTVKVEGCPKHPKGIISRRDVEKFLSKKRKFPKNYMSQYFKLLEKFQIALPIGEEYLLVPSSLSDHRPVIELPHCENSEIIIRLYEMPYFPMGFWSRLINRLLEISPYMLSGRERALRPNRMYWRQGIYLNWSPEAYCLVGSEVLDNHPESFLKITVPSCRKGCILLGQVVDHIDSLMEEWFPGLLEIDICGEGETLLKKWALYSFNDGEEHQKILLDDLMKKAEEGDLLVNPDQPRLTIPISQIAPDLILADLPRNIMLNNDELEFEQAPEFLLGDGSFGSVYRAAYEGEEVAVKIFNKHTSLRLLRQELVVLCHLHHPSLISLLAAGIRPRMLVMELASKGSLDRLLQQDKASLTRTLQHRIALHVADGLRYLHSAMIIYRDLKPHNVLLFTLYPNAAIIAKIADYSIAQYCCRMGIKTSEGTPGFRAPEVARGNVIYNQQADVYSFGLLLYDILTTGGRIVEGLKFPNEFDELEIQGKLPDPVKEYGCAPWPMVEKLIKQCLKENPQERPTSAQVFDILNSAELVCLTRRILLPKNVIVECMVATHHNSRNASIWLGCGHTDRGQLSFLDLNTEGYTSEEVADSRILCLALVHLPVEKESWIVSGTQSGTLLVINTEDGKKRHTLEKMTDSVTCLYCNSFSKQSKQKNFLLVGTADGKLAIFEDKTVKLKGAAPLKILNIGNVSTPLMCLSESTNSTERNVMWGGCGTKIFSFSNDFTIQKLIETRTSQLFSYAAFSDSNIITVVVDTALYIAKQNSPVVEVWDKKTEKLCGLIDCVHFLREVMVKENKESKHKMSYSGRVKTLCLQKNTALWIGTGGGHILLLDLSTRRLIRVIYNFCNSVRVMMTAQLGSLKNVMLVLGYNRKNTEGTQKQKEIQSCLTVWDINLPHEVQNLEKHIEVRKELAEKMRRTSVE

Molecular target: LRRK2 (Homo sapiens (Human), UniProt Q5S007, G2019S)
Assay: In Vitro LRRK2 LabChip Assay (LRRK2 Ki)
Format: biochemical
Protocol: In Vitro LRRK2 LabChip Assay
This assay was used to determine a compound's potency in inhibiting activity of LRRK2 by determining, Kiapp, IC50, or percent inhibition values. In a polypropylene plate, LRRK2, fluorescently-labeled peptide substrate, ATP and test compound were incubated together. Using a LabChip 3000 (Caliper Life Sciences), after the reaction the substrate was separated by capillary electrophoresis into two populations: phosphorylated and unphosphorylated. The relative amounts of each were quantitated by fluorescence intensity. LRRK2 Ki was determined according to the equation: Y=V0*(1−((x+Ki*(1+S/Km)+Et)/(2*Et)−(((x+Ki*(1+S/Km)+Et)^2−(4*Et*x))^0.5)/(2*Et))). Ki values in Table 4 and elsewhere herein are shown in μM.
Assay conditions and materials used were as follows:
LRRK2 Wild type in 5 mM MgCl2: 15 nM (Invitrogen lot #500607F)
Kinase reaction time: 2 hours
Wild type in 5 mM MgCl2: 80 μM
Solid Support: Black 50 μL volume polypropylene 384 well plate (MatriCal cat #MP101-1-PP)
Kinase: LRRK2 G2019S (Invitrogen cat #PV4882). • LRRK2 Wild type (Invitrogen cat #PV4874).
Substrate: 5FAM-[…]-CONH2
Non-binding plate: 384 well clear V-bottom polypropylene plates (Greiner cat #781280).
ATP: 10 mM ATP (Cell Signaling cat #9804).
Coating Reagent #3: Coating Reagent #3 (Caliper). […]
The plate was incubated for 2 hours in the dark. […] Results were read on the LabChip 3000. […]

- pKi: 8.05
Compound: CNc1nc(Nc2ccc(CN3CCOCC3)cc2OCCF)ncc1Cl [Example 14, 5-Chloro-N2-[2-(2-fluoro-ethoxy)-4-morpholin-4-ylmethyl-phenyl]-N4-methyl-pyrimidine-2,4-diamine]
